Assay results published in ChEMBL document CHEMBL2417510, “Stereoselective pharmacodynamic and pharmacokinetic analysis of sec-Butylpropylacetamide (SPD), a new CNS-active derivative of valproic acid with unique activity against status epilepticus” (J Med Chem, 2013).

System: Cavia porcellus
Experiment: Anticonvulsant activity in ip dosed guinea pig assessed as protection against soman-induced electrographic and convulsive seizures administered 40 mins post seizure

**Q.** How did the ED50 turn out when `CCCC(C(N)=O)C(C)CC` (racemic) was run?
**A.** 92 mg/kg
